Data published in ChEMBL document CHEMBL1201862, “PubChem BioAssay data set” (2004).
This is one part of the list. Cut-off read from the data, not from the text of the source: active = GI50 up to about 1.1 µM and inactive = higher. Only a part of the results of these assays is listed, not drawn at random.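 Briefly, cells in 96-well plates were exposed to five compound concentrations for 48 h, and endpoints were estimated by linear interpolation. GI50 marks 50% less growth.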 For some assays here: Measured potencies and affinities stand elsewhere.

Key:
Test in all cases: NCI tumour cell line growth inhibition, 48 h
SW-620 = system: SW-620
T47D = system: T47D
TK-10 = system: TK-10
U-251 = system: U-251
UACC-257 = system: UACC-257
UACC-62 = system: UACC-62
UO-31 = system: UO-31
XF498 = system: XF498

Row | SMILES | GI50 (SW-620) | GI50 (T47D) | GI50 (TK-10) | GI50 (U-251) | GI50 (UACC-257) | GI50 (UACC-62) | GI50 (UO-31) | GI50 (XF498)
1 | O=[As](O)(O)O | inactive: > 100 µM | inactive: > 100 µM | inactive: > 100 µM | inactive: > 100 µM | inactive: > 100 µM | inactive: > 100 µM | inactive: > 100 µM | –
2 | COP(C)(=O)C(N)Cc1ccccc1 (centres undefined) | inactive: > 100 µM | inactive: > 100 µM | inactive: > 100 µM | inactive: > 100 µM | inactive: 97.3 µM | inactive: > 100 µM | inactive: > 100 µM | –
3 | O=C1CCN2CCCC12 (centres undefined) | inactive: > 100 µM | inactive: > 100 µM | inactive: > 100 µM | inactive: > 100 µM | inactive: 80 µM | inactive: > 100 µM | inactive: 43.2 µM | –
4 | NNc1nc2nonc2nc1NN | inactive: 39.4 µM | inactive: 20.2 µM | inactive: > 100 µM | inactive: 40.6 µM | inactive: 37.2 µM | inactive: 55 µM | inactive: 40.4 µM | –
5 | ClCCSc1c2ccccc2nc2ccccc12 | inactive: 3.9 µM | inactive: 2.72 µM | inactive: 6.7 µM | inactive: 16.7 µM | inactive: 8.18 µM | inactive: 16.9 µM | inactive: 13 µM | –
6 | O=[N+]([O-])C1([N+](=O)[O-])COCOC1 | inactive: > 100 µM | inactive: 44.1 µM | inactive: > 100 µM | inactive: > 100 µM | inactive: 65.9 µM | inactive: 82 µM | inactive: > 100 µM | –
7 | Cc1[nH]c2c(C)c([N+](=O)[O-])c(C)c([N+](=O)[O-])c2c1[N+](=O)[O-] | inactive: 13.7 µM | – | inactive: 9.64 µM | inactive: 5.7 µM | inactive: 5.81 µM | inactive: 3.21 µM | inactive: 6.52 µM | inactive: 2.25 µM
8 | O=C1Nc2ccc([N+](=O)[O-])cc2/C1=N/Nc1ccc([N+](=O)[O-])cc1[N+](=O)[O-] | inactive: 21.7 µM | – | inactive: 17.8 µM | inactive: 11.9 µM | inactive: 26.1 µM | inactive: 32.6 µM | inactive: 44.4 µM | inactive: 18.9 µM
9 | COc1ccc(C[N+](C)(CCCl)CCCl)c([N+](=O)[O-])c1 | inactive: > 100 µM | inactive: 90.8 µM | inactive: > 100 µM | inactive: > 100 µM | inactive: > 100 µM | inactive: > 100 µM | inactive: > 100 µM | –
10 | C[S+](N)(=O)CCC(N)P(=O)(O)O (centres undefined) | inactive: > 100 µM | inactive: > 100 µM | inactive: > 100 µM | inactive: > 100 µM | inactive: > 100 µM | – | inactive: > 100 µM | –
11 | COc1ccc([N+](=O)[O-])c(C[N+](C)(CCCl)CCCl)c1 | inactive: > 100 µM | inactive: 52.6 µM | inactive: > 100 µM | inactive: > 100 µM | inactive: > 100 µM | inactive: > 100 µM | inactive: > 100 µM | –
12 | Cc1ccc2ccc3ccc4ccccc4c3c2c1.O=C1c2cc([N+](=O)[O-])ccc2-c2c1cc([N+](=O)[O-])cc2[N+](=O)[O-] | inactive: 1.23 µM | active: 1.07 µM | inactive: 7.74 µM | inactive: 2.1 µM | inactive: 7.41 µM | active: 0.966 µM | inactive: 1.4 µM | –
13 | O=[N+]([O-])C1([N+](=O)[O-])CCCc2nonc21 | inactive: 35.1 µM | inactive: 21 µM | inactive: > 100 µM | inactive: > 100 µM | – | inactive: 39.1 µM | inactive: 21.4 µM | –
14 | Cc1ccc([N+](=O)[O-])c(C[N+](C)(CCCl)CCCl)c1 | inactive: 14.9 µM | inactive: 11.9 µM | inactive: 33.8 µM | inactive: 16.8 µM | inactive: 15.6 µM | inactive: 12.6 µM | inactive: 22.4 µM | –
15 | CCCC[S+](N)(=O)CCC(N)P(=O)(O)O (centres undefined) | inactive: > 100 µM | inactive: > 100 µM | inactive: > 100 µM | inactive: > 100 µM | inactive: > 100 µM | – | inactive: > 100 µM | –
16 | COc1ccc2nccc(C=O)c2c1 | active: 0.245 µM | active: 0.0993 µM | inactive: 32.1 µM | active: 0.364 µM | inactive: 9.91 µM | inactive: 11 µM | inactive: 28.5 µM | –
17 | O[C@H]1[C@@H](O)CC2CCN3Cc4cc5c(cc4[C@H]1C23)OCO5 (some centres undefined) | inactive: > 100 µM | – | inactive: > 100 µM | inactive: > 100 µM | inactive: > 100 µM | inactive: > 100 µM | inactive: > 100 µM | –
18 | Cc1ccc2ccc(C)c(C)c2c1.O=[N+]([O-])c1cc([N+](=O)[O-])c(O)c([N+](=O)[O-])c1O | inactive: > 100 µM | inactive: > 100 µM | inactive: > 100 µM | inactive: > 100 µM | inactive: > 100 µM | inactive: > 100 µM | inactive: > 100 µM | –
19 | O[C@@H]1CCN2CCC[C@H]12 | inactive: > 100 µM | inactive: > 100 µM | inactive: > 100 µM | inactive: > 100 µM | inactive: > 100 µM | inactive: > 100 µM | inactive: 59 µM | –
20 | O=[N+]([O-])c1ncn(F)c1[N+](=O)[O-] | inactive: > 100 µM | – | inactive: > 100 µM | inactive: > 100 µM | inactive: > 100 µM | inactive: > 100 µM | inactive: > 100 µM | –
21 | CCCCCCCCCCCCCNCC(C)O (centres undefined) | inactive: 15.6 µM | inactive: 17.9 µM | inactive: 7.18 µM | inactive: 13.1 µM | inactive: 7.24 µM | inactive: 13.9 µM | inactive: 10.9 µM | –
22 | O=c1[nH]c2c(N/N=C/c3ccc([N+](=O)[O-])o3)c([N+](=O)[O-])c(N/N=C/c3ccc([N+](=O)[O-])o3)c([N+](=O)[O-])c2[nH]1 | inactive: 2.18 µM | – | – | – | – | – | – | –
23 | Nc1nc2c(ncn2CCN(CCCl)CCCl)c(=O)[nH]1 | inactive: > 100 µM | – | inactive: > 100 µM | inactive: > 100 µM | inactive: > 100 µM | inactive: > 100 µM | inactive: > 100 µM | –
